Binding of CDR-mutated scFvs to a peptide of the spike HR2 region

Source: Li et al. 2023 (doi:10.1038/s41467-023-39022-2), MIT Lincoln Laboratory and A-Alpha Bio; data file from the FLAb repository.

The target is the same throughout: PDVDLGDISGINAS, from the HR2 region of SARS-CoV-2 spike.

Parent scFv Ab-14: VH joined to VL by a (GGGGS)3 linker. Changes lie in the heavy chain CDRs alone.
VH: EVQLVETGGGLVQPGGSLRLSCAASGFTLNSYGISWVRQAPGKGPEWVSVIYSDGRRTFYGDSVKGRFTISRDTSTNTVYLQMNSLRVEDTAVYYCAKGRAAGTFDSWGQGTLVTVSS
VL: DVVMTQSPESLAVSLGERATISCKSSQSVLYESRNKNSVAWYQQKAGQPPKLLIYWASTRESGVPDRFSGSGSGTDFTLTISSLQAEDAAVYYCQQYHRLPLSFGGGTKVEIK

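The variants were designed computationally from a first round of random CDR variants and then made and measured. Their group label is 14H_En_Gibbs (En: ensemble of fine-tuned language models; Gibbs: Gibbs sampling). The scFvs were displayed on barcoded MATa yeast, the peptide on MATalpha yeast. After mating in shaken culture at 30 °C for 16 h, diploids were selected and their barcode pairs sequenced. A regression on co-assayed BCL2-family reference pairs converts the normalised counts of each replicate to an apparent Kd. Mating was done six times.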

Variants are written as CDR1, CDR2 and CDR3 of the heavy chain (limits as in the source). Parent: GFTLNSYGIS, VIYSDGRRTFYGDSVK, GRAAGTFDS. Scale: log10 of Kd in nM, estimated from mating counts; low values are strong binders. The mean shown is taken over the replicates in which the pair was detected. "n.d." means that the variant was in the library but no mating with the target was seen in that replicate; the authors take this as a sign of poor binding, and no number exists. The parent sequence was in this pool as ten entries: three were never detected, three once, and four in most replicates, with averages from 0.34 to 2.37. A sequence measured in both rounds can read differently, since the two assays cover different ranges. In the paper, a design with two or fewer of six values counts as a poor binder. As a blank, each scFv also met three strains without target: over all heavy chain designs, 1% of these pairings were detected, typically at 2.08 and seldom below 0.84. Also given: how often the same scFv was detected with the empty control strains, with their mean in brackets.

| CDR-H1 | CDR-H2 | CDR-H3 | log10 Kd (nM) by replicate | log10 Kd (nM), mean | empty controls |
|---|---|---|---|---|---|
| GQDLDEYGVS | VIYADGIRTQYTNDVK | GLYSGAFII | 2.95 / n.d. / n.d. / n.d. / n.d. / n.d. | 2.95 | 0/18 |
| GFQIDEYGIS | VIYADGQRKAYTENVK | GQHGGMTVA | n.d. / n.d. / n.d. / n.d. / n.d. / n.d. | n.d. | 0/18 |
| GKDIDEYGIS | VIYADGRRTFVADSVK | GINGDFVLA | n.d. / n.d. / n.d. / n.d. / n.d. / n.d. | n.d. | 0/18 |
| GDSLDEYGIS | VIYADGQRKAYMDNVK | GNGQGTLFD | 1.54 / n.d. / n.d. / n.d. / n.d. / n.d. | 1.54 | 0/18 |
| GFDINEYGIS | VIYADGSRTAYADTVK | GQWGCVFYV | n.d. / n.d. / n.d. / 0.49 / n.d. / n.d. | 0.49 | 0/18 |
| GFDLNEYGIS | VIYADGKRSYATDSVK | NGYNIGASV | n.d. / n.d. / n.d. / n.d. / n.d. / n.d. | n.d. | 0/18 |
| GFDLQEYGIS | VIYADGKRSMYTNDVK | GELGLGELI | n.d. / n.d. / n.d. / 0.85 / n.d. / n.d. | 0.85 | 0/18 |
| GQDLNEYGIS | VIYADGLRTAYTNNVK | GVQSGFDQG | n.d. / n.d. / n.d. / n.d. / n.d. / n.d. | n.d. | 0/18 |
| GKDLNEQGIS | VIYADGTRTAYANTVK | GEIAGIFPI | n.d. / n.d. / 4.49 / n.d. / n.d. / n.d. | 4.49 | 0/18 |
| GFDLGEYGIS | VIYADGKRTACVTNVK | GTFGGTLLD | n.d. / n.d. / n.d. / n.d. / n.d. / n.d. | n.d. | 0/18 |
| GFNLDEEGIS | VIYADGVRTAYINNVK | GYLDGYMTD | n.d. / n.d. / n.d. / n.d. / n.d. / n.d. | n.d. | 1/18 (1.98) |
| GFDIEEYGIS | VIYADGQRTMYTPNVK | GNHTGLVDI | n.d. / n.d. / n.d. / n.d. / n.d. / n.d. | n.d. | 0/18 |
| GFSLDEYGIS | VIYADGMRTAYTADVK | GVKGEDVVT | n.d. / n.d. / n.d. / n.d. / n.d. / n.d. | n.d. | 0/18 |
| GFDLKEYGIS | VIYADGRRTEYDNDVK | GQVAGIFLD | n.d. / n.d. / n.d. / n.d. / n.d. / n.d. | n.d. | 0/18 |
| GQDLNEYGIS | VIYADGQRTSYAQSVK | NAGDITGLV | n.d. / n.d. / n.d. / n.d. / n.d. / n.d. | n.d. | 0/18 |
| GFNLDEYGIS | VIYADGQRTAYDQKVK | GRMGTWNIV | n.d. / n.d. / n.d. / n.d. / n.d. / n.d. | n.d. | 0/18 |
| GFHLDEYGIS | VIYADGKRVVYTNDVK | GELEGGFVI | n.d. / n.d. / n.d. / n.d. / n.d. / n.d. | n.d. | 1/18 (3.48) |
| GFNLQEYGIS | VIYADGMRTAYASKVK | GKVWWFLLM | n.d. / n.d. / n.d. / n.d. / n.d. / n.d. | n.d. | 0/18 |
| GDSLNEYGIS | VIYADGLRSYYVNSVK | GEVDGLFSQ | n.d. / n.d. / n.d. / n.d. / n.d. / n.d. | n.d. | 0/18 |
| GMNIDEYGIS | VIYADGQRTHYINSVK | GEQAGIDMY | n.d. / n.d. / n.d. / 2.78 / n.d. / n.d. | 2.78 | 1/18 (2.51) |
| GFEIEEYGIS | VIYADGQRKSYINSVK | GTVGVTVMY | n.d. / n.d. / n.d. / n.d. / n.d. / n.d. | n.d. | 0/18 |
| GFELQEYGIS | VIYADGMKQSYRDKFK | GGIAGNFDM | n.d. / n.d. / n.d. / n.d. / n.d. / n.d. | n.d. | 0/18 |
| GFDLDEYGVS | VIYADGRRKKYADAVK | GTHGGTILA | n.d. / n.d. / n.d. / n.d. / n.d. / n.d. | n.d. | 0/18 |
| GKNLDEYGVS | VIYADGKRTAYTNNFK | GTNAGFFMS | n.d. / n.d. / n.d. / n.d. / n.d. / n.d. | n.d. | 0/18 |
| GKDLEEYGIS | VIYADGRRSDYTDNVK | GHNGYIFMM | n.d. / n.d. / n.d. / n.d. / n.d. / n.d. | n.d. | 0/18 |
| GFDLQEYGIS | VIYADGHRTAYTNKVK | GGISMISVT | n.d. / n.d. / n.d. / n.d. / n.d. / n.d. | n.d. | 0/18 |
| GFDINEYGIS | VIYADGVRSAYAQQVK | GHGEVVSMD | n.d. / n.d. / n.d. / n.d. / n.d. / n.d. | n.d. | 1/18 (2.24) |
| GFDLDEYGVS | VIYADGIRCTYADAVK | GKHGGAIFV | n.d. / n.d. / n.d. / n.d. / n.d. / n.d. | n.d. | 0/18 |
| GFDLNEYGIS | VIYADGIRSRYANKVK | GNGAGTLLI | n.d. / n.d. / n.d. / n.d. / n.d. / n.d. | n.d. | 0/18 |
| GRNLDEYGIS | VIYADGQRTSYIDNVK | GGDAVDFDM | n.d. / n.d. / n.d. / 2.37 / n.d. / n.d. | 2.37 | 0/18 |
| GEDLLEYGIS | VIYADGKRVAYTNQVK | GNEAGFFTL | n.d. / n.d. / n.d. / n.d. / n.d. / n.d. | n.d. | 0/18 |
| GFDLEEMGVS | VIYHDGVRKAYKQKVK | GQTAGSFDV | n.d. / n.d. / n.d. / n.d. / n.d. / n.d. | n.d. | 0/18 |
| GKDLQEYGIS | VIYADGMRVAYTDSVK | GTQGISNIE | n.d. / n.d. / n.d. / n.d. / n.d. / n.d. | n.d. | 1/18 (1.02) |
| GFDLQEYGIS | VIYADGTREAYSEKVK | GQLAGYFMF | n.d. / n.d. / n.d. / n.d. / n.d. / n.d. | n.d. | 1/18 (1.02) |
| GFELSEYGIS | VIYADGVRVEYTQSVK | GQLGGSFLV | n.d. / n.d. / n.d. / n.d. / n.d. / n.d. | n.d. | 0/18 |
| GVDIDEYGIS | VIYADGIRTFYQDKVK | GNVGGMFDT | n.d. / 0.77 / n.d. / 1.41 / 0.77 / 1.58 | 1.13 | 0/18 |
| GFNLEDYGIS | VIYADGHRASYVESVK | GHLAGTFDE | -0.38 / 0.07 / -0.04 / -0.15 / -0.33 / -0.06 | -0.15 | 0/18 |
| GFDINEYGIS | VIYADGQRVAYTNSFK | GTQAGQFIN | n.d. / n.d. / n.d. / n.d. / n.d. / 2.12 | 2.12 | 2/18 (1.68) |
| GFDLDSYGIS | VIYADGRRSAYHDSVK | GQNGGVSFV | -0.50 / -0.85 / -1.14 / -0.99 / -1.15 / -0.76 | -0.90 | 0/18 |
| GNSLDEYGIS | VIYADGMRTAYTDAFK | GVGSNTLVD | n.d. / n.d. / n.d. / n.d. / n.d. / n.d. | n.d. | 0/18 |
| GFDLEEYGIS | VIYADGIRQYAQDNVK | GLLSGMGIT | 0.61 / -0.06 / 0.21 / 0.25 / 0.94 / 0.86 | 0.47 | 0/18 |
| GKHLDEYGIS | VIYADGQRVFYSDTVK | GNQGFTVDV | n.d. / n.d. / n.d. / n.d. / n.d. / n.d. | n.d. | 0/18 |

Excerpt, the final 3 entries:

{"CDR-H1": "GNSLDEYGIS", "CDR-H2": "VIYADGMRTAYTDAFK", "CDR-H3": "GVGSNTLVD", "log10 Kd (nM) by replicate": "n.d. / n.d. / n.d. / n.d. / n.d. / n.d.", "log10 Kd (nM), mean": "n.d.", "empty controls": "0/18"}
{"CDR-H1": "GFDLEEYGIS", "CDR-H2": "VIYADGIRQYAQDNVK", "CDR-H3": "GLLSGMGIT", "log10 Kd (nM) by replicate": "0.61 / -0.06 / 0.21 / 0.25 / 0.94 / 0.86", "log10 Kd (nM), mean": "0.47", "empty controls": "0/18"}
{"CDR-H1": "GKHLDEYGIS", "CDR-H2": "VIYADGQRVFYSDTVK", "CDR-H3": "GNQGFTVDV", "log10 Kd (nM) by replicate": "n.d. / n.d. / n.d. / n.d. / n.d. / n.d.", "log10 Kd (nM), mean": "n.d.", "empty controls": "0/18"}